Molecular target: Kappa-type opioid receptor (Cavia porcellus, UniProt P41144)
Assay: Binding affinity towards kappa-opioid receptor by displacement of [3H]-EKC at from guinea pig cortical tissue

Chains of the proteins cited; added tags and fusions are not shown. Lines headed by an entry give the natural chain unless they say otherwise; changes in a name come on top.
UniProt P41144: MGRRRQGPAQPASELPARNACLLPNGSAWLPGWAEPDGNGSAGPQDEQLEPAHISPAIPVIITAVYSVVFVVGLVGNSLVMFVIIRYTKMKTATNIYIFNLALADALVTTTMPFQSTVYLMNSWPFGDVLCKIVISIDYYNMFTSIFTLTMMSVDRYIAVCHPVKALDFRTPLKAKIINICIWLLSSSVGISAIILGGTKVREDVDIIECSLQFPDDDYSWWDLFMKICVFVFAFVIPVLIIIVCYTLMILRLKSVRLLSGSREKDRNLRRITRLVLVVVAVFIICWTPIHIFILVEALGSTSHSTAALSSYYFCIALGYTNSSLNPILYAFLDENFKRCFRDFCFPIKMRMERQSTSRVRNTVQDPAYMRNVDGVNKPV

CCCCCCN1CC[C@@](C)(c2cccc(O)c2)[C@@H](C)C1
Ki: 9.6 nM

Source: ChEMBL document CHEMBL1126828, “Structure-activity relationships of trans-3,4-dimethyl-4-(3-hydroxyphenyl)piperidine antagonists for mu- and kappa-opioid receptors” (J Med Chem, 1993)
